Amino acid sequences for entries named in this document (tags omitted). Residues count along the entry.
UniProt Q00987, 1-188 limits assumed: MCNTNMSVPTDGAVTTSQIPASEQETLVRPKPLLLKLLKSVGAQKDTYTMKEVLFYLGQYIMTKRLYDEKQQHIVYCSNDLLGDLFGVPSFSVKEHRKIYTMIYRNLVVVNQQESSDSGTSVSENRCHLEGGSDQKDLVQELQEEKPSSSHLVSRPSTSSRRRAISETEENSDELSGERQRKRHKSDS

The test deals with interaction between HDM2 and p53 (GST-hMDM2 (1-188) / biotinylated-p53 (1-83)) (Homo sapiens (Human), UniProt Q00987). Kind of test: HTRF2 Assay (improved HTRF assay). Conditions: read-out: HTRF2 IC50; 0.2 nM GST-hMDM2 (1-188), 0.5 nM biotinylated-p53 (1-83), 100 mM KF. The class given is binding. (TR-FRET usually uses a lanthanide donor and a delayed reading to cut background.)
By IC50 is commonly meant the concentration at which inhibition is half-maximal. On to `CC(=O)NNC(=O)C[C@H]1O[C@H](c2cccc(Cl)c2)[C@H](c2ccc(Cl)cc2)N(CC2CC2)C1=O` (relative stereo), for which the IC50 is 6060 nM.
For `CC(C)=CC[C@H]1O[C@H](c2ccc(Br)cc2)[C@H](c2ccc(Br)cc2)N(C)C1=O` (relative stereo), the IC50 was 25000 nM.
Next, `CCCCN1C(=O)[C@@H](CC(=O)O)O[C@H](c2cccc(Cl)c2)[C@@H]1c1ccc(Cl)cc1` (relative stereo): 2350 nM; `CCCNC(=O)[C@@H](CCC)N1C(=O)CO[C@@H](c2ccc(Cl)cc2)[C@H]1c1ccc(Cl)cc1` (relative stereo): 5000 nM.
Next, `CCC[C@@H](C(=O)N1CCN(C)CC1)N1C(=O)[C@@H](Cc2ccc(F)cc2)O[C@H](c2ccc(Cl)cc2)[C@@H]1c1ccc(Cl)cc1` (relative stereo): 922 nM; `CCC[C@@H](C(=O)N1CCOCC1)N1C(=O)[C@@H](Cc2ccc(F)cc2)O[C@H](c2ccc(Cl)cc2)[C@@H]1c1ccc(Cl)cc1` (relative stereo): 1050 nM.
Turning to `CCC[C@@H](CN)N1C(=O)[C@@H](Cc2ccc(F)cc2)O[C@H](c2ccc(Cl)cc2)[C@@H]1c1ccc(Cl)cc1` (relative stereo), the IC50 came out at 4650 nM.
For `CCC[C@@H](c1nnn[nH]1)N1C(=O)[C@@H](Cc2ccc(C#N)cc2)O[C@H](c2ccc(Cl)cc2)[C@@H]1c1ccc(Cl)cc1` (relative stereo) the value was 415 nM.
For the compound `CCC[C@@H](c1nnn[nH]1)N1C(=O)[C@@H](Cc2ccc(F)cc2)O[C@H](c2ccc(Cl)cc2)[C@@H]1c1ccc(Cl)cc1` (relative stereo), the IC50 was determined as 1330 nM.
In the case of `CCC[C@H](C(=O)N(C)C)N1C(=O)CO[C@@H](c2ccc(Cl)cc2)[C@H]1c1ccc(Cl)cc1` (relative stereo), the IC50 was determined as 4160 nM.
For `CCC[C@H](C(=O)NCC(=O)O)N1C(=O)CO[C@@H](c2ccc(Cl)cc2)[C@H]1c1ccc(Cl)cc1` (relative stereo) the value was 5050 nM; for `CCC[C@H](C(=O)NCC(=O)O)N1C(=O)[C@H](Cc2ccc(C#N)cc2)O[C@@H](c2ccc(Cl)cc2)[C@H]1c1ccc(Cl)cc1` (relative stereo), 630 nM.
For the compound `CCC[C@H](C(=O)NCCC(=O)O)N1C(=O)[C@@H](Cc2ccc(C#N)cc2)O[C@H](c2ccc(Cl)cc2)[C@@H]1c1ccc(Cl)cc1` (relative stereo), the IC50 was determined as 2660 nM.
Next, `CCC[C@H](C(=O)NCCC(=O)O)N1C(=O)[C@H](Cc2ccc(C#N)cc2)O[C@@H](c2ccc(Cl)cc2)[C@H]1c1ccc(Cl)cc1` (relative stereo): 428 nM; `CCC[C@H](C(=O)NCCN1CCOCC1)N1C(=O)CO[C@@H](c2ccc(Cl)cc2)[C@H]1c1ccc(Cl)cc1` (relative stereo): 4530 nM; `CCC[C@H](C(=O)O)N1C(=O)CO[C@@H](c2ccc(Cl)cc2)[C@H]1c1ccc(Br)cc1` (relative stereo): 2690 nM.
Next, `CCC[C@H](C(=O)O)N1C(=O)CO[C@@H](c2ccc(Cl)cc2C)[C@H]1c1ccc(Cl)cc1` (relative stereo): 7670 nM; `CCC[C@H](C(=O)O)N1C(=O)[C@@H](Cc2ccc(F)cc2)O[C@H](c2cccc(Cl)c2)[C@@H]1c1ccc(Cl)cc1` (relative stereo): 12700 nM.
Regarding `CCC[C@H](C(=O)O)N1C(=O)[C@H](CC(=O)N2CCOCC2)O[C@@H](c2cccc(Cl)c2)[C@H]1c1ccc(Cl)cc1` (relative stereo), the IC50 was determined as 1600 nM.
For `CCC[C@H](C(=O)O)N1C(=O)[C@H](CC(N)=O)O[C@@H](c2ccc(Cl)cc2)[C@H]1c1ccc(Cl)cc1` (relative stereo) the value was 3850 nM; for `CCC[C@H](C(=O)O)N1C(=O)[C@H](Cc2ccc(C#N)cc2)O[C@@H](c2ccc(Cl)cc2)[C@H]1c1ccc(Br)cc1` (relative stereo), 358 nM.
Consider `CCC[C@H](C(=O)O)N1C(=O)[C@H](Cc2ccc(C#N)cc2)O[C@@H](c2ccc(Cl)cc2)[C@H]1c1ccc(Cl)cc1` (relative stereo), for which the IC50 came to 465 nM.
For `CCC[C@H](C(=O)O)N1C(=O)[C@H](Cc2ccc(F)cc2)O[C@@H](c2ccc(Cl)cc2)[C@H]1c1ccc(Br)cc1` (relative stereo) the value was 707 nM; for `CCC[C@H](C(=O)O)N1C(=O)[C@H](Cc2ccc(F)cc2)O[C@@H](c2ccc(Cl)cc2Cl)[C@H]1c1ccc(Cl)cc1` (relative stereo), 2160 nM.
Next, `CCC[C@H](C(=O)O)N1C(=O)[C@H](Cc2ccc(F)cc2)O[C@@H](c2ccccc2)[C@H]1c1ccc(Cl)cc1` (relative stereo): 1470 nM; `CCC[C@H](C(N)=O)N1C(=O)CO[C@@H](c2cccc(Cl)c2)[C@H]1c1ccc(Cl)cc1` (relative stereo): 2780 nM; `CCC[C@H](C(N)=O)N1C(=O)[C@H](Cc2ccc(F)cc2)O[C@@H](c2ccc(Cl)c(F)c2)[C@H]1c1ccc(Cl)cc1` (relative stereo): 2000 nM.
As to `CCC[C@H](C(N)=O)N1C(=O)[C@H](Cc2ccc(F)cc2)O[C@@H](c2cccc(Cl)c2)[C@H]1c1ccc(Cl)cc1` (relative stereo), the IC50 came out at 2500 nM.
For `CCC[C@H](CN1CCOCC1)N1C(=O)CO[C@@H](c2ccc(Cl)cc2)[C@H]1c1ccc(Cl)cc1` (relative stereo) the value was 4000 nM; for `CCC[C@H](CNC(=O)CO)N1C(=O)CO[C@@H](c2ccc(Cl)cc2)[C@H]1c1ccc(Cl)cc1` (relative stereo), 3710 nM; for `CCC[C@H](CNS(C)(=O)=O)N1C(=O)CO[C@@H](c2ccc(Cl)cc2)[C@H]1c1ccc(Cl)cc1` (relative stereo), 5120 nM.
`CN1C(=O)[C@@H](Cc2ccccc2C#N)O[C@H](c2ccc(Cl)cc2)[C@@H]1c1ccc(Cl)cc1` (relative stereo): the IC50 is 1770 nM.
For `N#CCC[C@H]1O[C@H](c2cccc(Cl)c2)[C@H](c2ccc(Cl)cc2)N(CC2CC2)C1=O` (relative stereo) the value was 6300 nM.
For `N#Cc1cccc([C@H]2OCC(=O)N(CC3CC3)[C@H]2c2ccc(Cl)cc2)c1` (relative stereo), the IC50 was found to be 19000 nM.
As for `NC(=O)OCC[C@H]1O[C@H](c2cccc(Cl)c2)[C@H](c2ccc(Cl)cc2)N(CC2CC2)C1=O` (relative stereo), the IC50 is 2250 nM.
Next, `O=C(C[C@H]1O[C@H](c2cccc(Cl)c2)[C@H](c2ccc(Cl)cc2)N(CC2CC2)C1=O)N1CCOCC1` (relative stereo): 2920 nM; `O=C(C[C@H]1O[C@H](c2cccc(Cl)c2)[C@H](c2ccc(Cl)cc2)N(CC2CC2)C1=O)NCCN1CCOCC1` (relative stereo): 2050 nM.
For the compound `O=C(O)C[C@H]1O[C@H](c2cccc(Cl)c2)[C@H](c2ccc(Cl)cc2)N(S(=O)(=O)C2CC2)C1=O` (relative stereo), the IC50 worked out at 4210 nM.
For `O=C(O)[C@@H](c1ccc(Cl)cc1)N1C(=O)CO[C@@H](c2ccc(Cl)cc2)[C@H]1c1ccc(Cl)cc1` (relative stereo) the value was 16800 nM; for `O=C(O)[C@@H](c1cccc(Cl)c1)N1C(=O)[C@H](Cc2ccc(F)cc2)O[C@@H](c2ccc(Cl)cc2)[C@H]1c1ccc(Cl)cc1` (relative stereo), 2250 nM; for `O=C(O)[C@@H](c1ccccc1)N1C(=O)[C@H](Cc2ccc(F)cc2)O[C@@H](c2ccc(Cl)cc2)[C@H]1c1ccc(Cl)cc1` (relative stereo), 1520 nM.

The record behind these values is patent publication US11407721B2, “CIS-morpholinone and other compounds as MDM2 inhibitors for the treatment of cancer” (AMGEN INC., priority 2013, dated 2022).
